Source: US9175000B2, “Buprenorphine analogs” (dated 2015)

Columns and labels:
[1] = biological target: T1, recombinant μ opioid receptor (Homo sapiens (Human), UniProt P35372); test: μ-opioid receptor [35S]GTPγS functional assay, HEK-293 or CHO cell membranes; conditions: HEK-293 or CHO cells; relative to DAMGO
[2] = biological target: T1, recombinant μ opioid receptor; test: μ-opioid receptor [35S]GTPγS functional assay, U-2 OS cell membranes; conditions: U-2 OS cells; relative to DAMGO
[3] = biological target: T2, recombinant human κ opioid receptor (Homo sapiens (Human), UniProt P41145); test: κ-opioid receptor [35S]GTPγS functional assay, U-2 OS cell membranes; conditions: U-2 OS cells; relative to U69,593
[4] = biological target: T2, recombinant human κ opioid receptor; test: κ-opioid receptor [35S]GTPγS functional assay, HEK-293 or CHO cell membranes; conditions: HEK-293 or CHO cells; relative to U69,593

Row | Structure (SMILES) | GTPγS μ Emax [1] | GTPγS μ Emax [2] | GTPγS κ Emax [3] | GTPγS κ Emax [4]
1 | COc1ccc2c3c1O[C@H]1[C@@]4(OC)CC[C@@]5(C[C@@H]4C(N[C@H](C(N)=O)c4ccccc4)c4ccccc4)[C@@H](C2)N(CC2CC2)CC[C@]315 (some centres unmarked) | 67.67 ± 1.76% |  |  | 
2 | COc1ccc2c3c1O[C@H]1[C@@]4(OC)CC[C@@]5(C[C@@H]4C(NC(C)C(N)=O)c4ccccc4)[C@@H](C2)N(CC2CC2)CC[C@]315 (some centres unmarked) | 32.75 ± 1.89% | 43.70 ± 2.33% | 102.30 ± 4.37% | 61.67 ± 6.98%
3 | COc1ccc2c3c1O[C@H]1[C@@]4(OC)CC[C@@]5(C[C@@H]4C(NC(C(=O)O)c4ccccc4)c4ccccc4)[C@@H](C2)N(CC2CC2)CC[C@]315 (some centres unmarked) | 45.33 ± 0.88% |  |  | 51.00 ± 3.06%
4 | COc1ccc2c3c1O[C@H]1[C@@]4(OC)CC[C@@]5(C[C@@H]4C(NCC(=O)O)c4ccccc4)[C@@H](C2)N(CC2CC2)CC[C@]315 (some centres unmarked) | 83.50 ± 5.25% |  |  | 52.25 ± 1.93%
5 | COc1ccc2c3c1O[C@H]1[C@@]4(OC)CC[C@@]5(C[C@@H]4C(NC(C)C(=O)O)c4ccccc4)[C@@H](C2)N(CC2CC2)CC[C@]315 (some centres unmarked) | 40.67 ± 2.91% | 38.99 ± 4.04% | 102.00 ± 4.04% | 43.33 ± 2.33%
6 | COc1ccc2c3c1O[C@H]1[C@@]4(OC)CC[C@@]5(C[C@@H]4C(N[C@@H](C(N)=O)c4ccccc4)c4ccccc4)[C@@H](C2)N(CC2CC2)CC[C@]315 (some centres unmarked) | 23.67 ± 1.76% |  |  | 70.67 ± 3.71%
7 | COc1ccc2c3c1O[C@H]1[C@@]4(OC)CC[C@@]5(C[C@@H]4[C@](O)(CC(O)CO)c4ccccc4)[C@@H](C2)N(CC2CC2)CC[C@]315 (some centres unmarked) | 41.75 ± 3.12% |  |  | 33.67 ± 1.86%
